Measurements: patent publication US20250019398A1, “NONAMERIC PEPTIDE HAVING EXCELLENT ANTIBACTERIAL ACTIVITY AGAINST GRAM-NEGATIVE BACTERIA AND ENANTIOMER THEREOF” (priority 2021, published 2025)

Columns and labels:
Type in all cases: cell-based
[1] = tested on: all bacterial strains (standard and carbapenem-resistant Gram-negative bacteria); assay: Mean MIC (GM) for all bacterial strains; conditions: all nine strains of Table 2
Procedure: The antimicrobial activities of the peptides were measured by a minimal inhibitory concentration (MIC) analysis. The MIC was determined using a broth dilution method. All bacterial strains were grown overnight at 37° C. in a Muller-Hinton (MH) medium.

[2] = tested on: sheep red blood cells (sRBCs); assay: Hemolysis of sheep red blood cells; conditions: 200 μM used when no detectable hemolysis at 100 μM
Procedure: Peptide-induced toxicity was determined by hemolysis of sheep red blood cells (sRBCs). Fresh sRBCs were washed three times or more with phosphate buffered saline (PBS), and debris was removed by centrifugation (1000×g, 5 minutes, 4° C.). All the peptides including a melittin control (0.2 to 100 μM) and a positive control (1% (v/v) Triton X-100) were cultured with 4% (v/v) sRBCs at 37° C. for 1 h, and then centrifuged at 1000×g for 5 minutes. The supernatant was measured at 405 nm using a microplate reader.

[3] = tested on: Gram-negative bacteria versus sheep red blood cells; assay: Relative selective index (HC10/GM of MIC); conditions: higher = greater selectivity for bacteria

For CC[C@H](C)[C@H](NC(=O)CN)C(=O)NCC(=O)N[C@@H](C)C(=O)N[C@H](C(=O)N[C@@H](CC(C)C)C(=O)N[C@@H](CCCCN)C(=O)N[C@H](C(=O)N[C@@H](CC(C)C)C(=O)N[C@H](C(=O)N[C@H](C(=O)NCC(=O)N[C@@H](CC(C)C)C(=O)N1CCC[C@H]1C(=O)N[C@@H](C)C(=O)N[C@@H](CC(C)C)C(=O)N[C@H](C(=O)N[C@@H](CO)C(=O)N[C@@H](Cc1c[nH]c2ccccc12)C(=O)N[C@H](C(=O)N[C@@H](CCCCN)C(=O)N[C@@H](CCCNC(=N)N)C(=O)N[C@@H](CCCCN)C(=O)N[C@@H](CCCNC(=N)N)C(=O)N[C@@H](CCC(N)=O)C(=O)N[C@@H](CCC(N)=O)C(N)=O)[C@@H](C)CC)[C@@H](C)CC)[C@@H](C)O)[C@@H](C)O)C(C)C)C(C)C [Melittin], the “GM (geometric mean of MIC values for all bacterial strains)” value [1] was 12.4 µM, the “HC10 (peptide concentration that induces 10% hemolysis)” value [2] was 3.1 µM and the Relative selective index [3] was 0.25.
